From patent publication US12630506B2, “Direct thrombin inhibitors and methods of use thereof” (Baylor College of Medicine, priority 2020, dated 2026)

Biological target: Thrombin (Homo sapiens, UniProt P00734)
Test: Thrombin inhibition in vitro (Kiapp)
Type: biochemical
Conditions: FIG. 1, read-out: inhibition constant (thrombin)
Method: The inhibitory potency of Compound 1 on thrombin was tested in vitro. Argatroban, a known small molecule direct thrombin inhibitor, was used as a control.

CC1CNc2c(cccc2S(=O)(=O)N[C@@H](CCCNC(=N)N)C(=O)N2CC[C@@H](C)C[C@@H]2C(=O)O)C1 (stereo partly shown) [Argatroban, reference compound]
Ki: 9 nM
